Assay results reported in publication doi:10.1101/2022.02.04.479134, “A Suite of TMPRSS2 Assays for Screening Drug Repurposing Candidates as Potential Treatments of COVID-19” (bioRxiv, 2022).

Amino acid sequences for entries named in this document (tags omitted). Residues count along the entry.
UniProt O15393, 106-492 limits assumed: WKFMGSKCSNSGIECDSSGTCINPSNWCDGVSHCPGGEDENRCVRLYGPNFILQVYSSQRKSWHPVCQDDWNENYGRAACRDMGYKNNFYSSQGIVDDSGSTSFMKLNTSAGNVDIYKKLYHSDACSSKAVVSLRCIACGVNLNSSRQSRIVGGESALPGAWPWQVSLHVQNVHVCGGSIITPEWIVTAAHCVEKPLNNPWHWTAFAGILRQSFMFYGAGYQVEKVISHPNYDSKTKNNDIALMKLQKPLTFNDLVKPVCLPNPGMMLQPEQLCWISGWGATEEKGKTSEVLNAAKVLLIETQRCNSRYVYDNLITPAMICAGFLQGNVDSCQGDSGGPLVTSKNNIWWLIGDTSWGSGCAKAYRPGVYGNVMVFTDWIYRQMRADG

Molecular target: Recombinant Human TMPRSS2 (Homo sapiens, UniProt O15393)
Experiment: TMPRSS2 mass spectrometry detection biochemical assay (Cbz-SKPSKRSFIED substrate)
Details: read-out: Biochemical (mass spectrometry) AC50; 10 μM peptide, 0.4 μM TMPRSS2, 1 h RT; N/D = Not Detected

COc1ccc(CC(=O)NC(NC(=NC#N)Nc2cccc3ncccc23)C(C)(C)C)cc1OC (stereo not shown)
AC50: 39.5 µM
